From patent US6906033

Columns and labels:
[1] = target: human factor XIIa (human) (UniProt P00748); assay: enzyme inhibition
[2] = target: human plasma kallikrein (human) (UniProt P03952); assay: enzyme inhibition

Substance | Ki [1] [nM] | Ki [2] [nM]
Aprotinin | 5000 | 20
Aprotinin R15, S42 | 3980 | 0.91
